Measurements as given in patent US8637684B2, “Tautomycetin and tautomycetin analog biosynthesis” (Wisconsin Alumni Research Foundation, priority 2010, dated 2014).

The chains behind the UniProt entries cited, without tags or fusion partners. Residues count along the entry.
UniProt Q9UNH5, whole entry: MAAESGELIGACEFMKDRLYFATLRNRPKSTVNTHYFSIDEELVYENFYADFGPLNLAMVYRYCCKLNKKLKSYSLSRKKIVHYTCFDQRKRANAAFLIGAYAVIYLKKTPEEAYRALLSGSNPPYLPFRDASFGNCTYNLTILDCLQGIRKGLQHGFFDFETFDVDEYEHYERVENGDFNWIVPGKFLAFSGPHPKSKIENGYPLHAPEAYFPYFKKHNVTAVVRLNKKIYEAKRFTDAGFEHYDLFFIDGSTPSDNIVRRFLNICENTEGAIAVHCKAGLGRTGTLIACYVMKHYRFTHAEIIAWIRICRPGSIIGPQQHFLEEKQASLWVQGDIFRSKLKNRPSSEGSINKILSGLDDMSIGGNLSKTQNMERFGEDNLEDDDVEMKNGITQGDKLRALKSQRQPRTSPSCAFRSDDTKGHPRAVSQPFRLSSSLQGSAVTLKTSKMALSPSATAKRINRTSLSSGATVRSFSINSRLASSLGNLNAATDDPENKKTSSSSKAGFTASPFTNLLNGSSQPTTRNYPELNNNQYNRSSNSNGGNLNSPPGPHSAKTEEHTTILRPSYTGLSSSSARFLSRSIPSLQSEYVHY
UniProt P08575, 26-1306 limits assumed: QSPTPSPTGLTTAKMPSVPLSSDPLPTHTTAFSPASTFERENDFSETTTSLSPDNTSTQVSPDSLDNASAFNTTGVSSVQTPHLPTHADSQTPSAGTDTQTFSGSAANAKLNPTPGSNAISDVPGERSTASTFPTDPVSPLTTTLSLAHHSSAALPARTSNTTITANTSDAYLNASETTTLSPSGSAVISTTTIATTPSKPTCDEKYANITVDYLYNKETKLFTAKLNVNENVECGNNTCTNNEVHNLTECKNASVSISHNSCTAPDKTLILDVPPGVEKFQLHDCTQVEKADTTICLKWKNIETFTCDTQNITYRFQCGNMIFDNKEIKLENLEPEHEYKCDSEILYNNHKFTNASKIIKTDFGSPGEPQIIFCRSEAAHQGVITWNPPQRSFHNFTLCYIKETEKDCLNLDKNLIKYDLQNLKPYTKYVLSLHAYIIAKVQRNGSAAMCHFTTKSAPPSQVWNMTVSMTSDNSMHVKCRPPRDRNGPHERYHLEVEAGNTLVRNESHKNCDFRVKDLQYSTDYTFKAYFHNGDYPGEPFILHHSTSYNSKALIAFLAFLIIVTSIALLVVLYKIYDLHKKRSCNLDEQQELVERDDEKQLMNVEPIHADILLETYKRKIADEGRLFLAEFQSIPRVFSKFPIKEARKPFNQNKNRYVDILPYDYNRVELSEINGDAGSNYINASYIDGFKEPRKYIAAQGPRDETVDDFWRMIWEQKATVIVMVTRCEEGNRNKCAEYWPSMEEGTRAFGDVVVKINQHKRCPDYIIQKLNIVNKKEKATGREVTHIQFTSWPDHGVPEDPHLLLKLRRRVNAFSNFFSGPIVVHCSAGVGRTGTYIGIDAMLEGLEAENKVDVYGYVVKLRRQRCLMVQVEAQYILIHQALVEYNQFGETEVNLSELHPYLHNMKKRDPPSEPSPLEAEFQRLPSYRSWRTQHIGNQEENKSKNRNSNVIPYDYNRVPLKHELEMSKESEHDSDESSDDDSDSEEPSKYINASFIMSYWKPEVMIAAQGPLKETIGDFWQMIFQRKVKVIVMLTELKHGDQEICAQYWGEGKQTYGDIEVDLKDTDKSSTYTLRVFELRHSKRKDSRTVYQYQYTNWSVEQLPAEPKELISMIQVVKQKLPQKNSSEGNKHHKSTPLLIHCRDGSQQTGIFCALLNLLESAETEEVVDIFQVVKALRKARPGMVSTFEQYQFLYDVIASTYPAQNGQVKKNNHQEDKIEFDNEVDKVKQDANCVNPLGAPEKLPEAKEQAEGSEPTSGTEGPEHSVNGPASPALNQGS
UniProt P35236, whole entry: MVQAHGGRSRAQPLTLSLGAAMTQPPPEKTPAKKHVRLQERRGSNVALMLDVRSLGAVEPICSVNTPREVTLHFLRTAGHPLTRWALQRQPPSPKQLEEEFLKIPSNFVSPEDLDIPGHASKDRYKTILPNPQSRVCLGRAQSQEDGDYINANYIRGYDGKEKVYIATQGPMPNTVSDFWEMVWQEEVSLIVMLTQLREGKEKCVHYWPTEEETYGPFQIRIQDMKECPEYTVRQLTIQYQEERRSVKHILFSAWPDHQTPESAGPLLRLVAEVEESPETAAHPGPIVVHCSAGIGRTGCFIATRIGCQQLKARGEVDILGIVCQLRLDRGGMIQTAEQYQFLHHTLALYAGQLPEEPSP
UniProt P18433, 20-802 limits assumed: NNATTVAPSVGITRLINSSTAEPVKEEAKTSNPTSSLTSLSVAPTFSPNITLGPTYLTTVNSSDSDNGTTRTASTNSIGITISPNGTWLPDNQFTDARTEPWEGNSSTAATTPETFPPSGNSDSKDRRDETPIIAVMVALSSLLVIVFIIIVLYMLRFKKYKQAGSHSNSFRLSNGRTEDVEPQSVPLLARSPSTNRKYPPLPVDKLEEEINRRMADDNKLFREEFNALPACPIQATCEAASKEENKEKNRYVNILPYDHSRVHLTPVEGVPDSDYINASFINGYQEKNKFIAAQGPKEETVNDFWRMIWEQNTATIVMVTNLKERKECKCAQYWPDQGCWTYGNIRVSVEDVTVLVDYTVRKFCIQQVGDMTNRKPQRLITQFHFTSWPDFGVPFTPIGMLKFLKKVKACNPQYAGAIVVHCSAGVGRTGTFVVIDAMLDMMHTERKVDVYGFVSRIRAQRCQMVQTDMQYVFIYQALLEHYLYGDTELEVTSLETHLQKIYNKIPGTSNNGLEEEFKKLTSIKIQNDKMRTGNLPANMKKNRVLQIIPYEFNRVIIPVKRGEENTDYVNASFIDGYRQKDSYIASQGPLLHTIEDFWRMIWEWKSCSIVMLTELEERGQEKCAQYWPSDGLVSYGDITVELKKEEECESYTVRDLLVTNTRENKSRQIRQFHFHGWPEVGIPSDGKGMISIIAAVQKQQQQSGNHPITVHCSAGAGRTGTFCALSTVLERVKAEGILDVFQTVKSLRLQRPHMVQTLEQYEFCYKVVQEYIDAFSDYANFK
UniProt Q9Y2R2, whole entry: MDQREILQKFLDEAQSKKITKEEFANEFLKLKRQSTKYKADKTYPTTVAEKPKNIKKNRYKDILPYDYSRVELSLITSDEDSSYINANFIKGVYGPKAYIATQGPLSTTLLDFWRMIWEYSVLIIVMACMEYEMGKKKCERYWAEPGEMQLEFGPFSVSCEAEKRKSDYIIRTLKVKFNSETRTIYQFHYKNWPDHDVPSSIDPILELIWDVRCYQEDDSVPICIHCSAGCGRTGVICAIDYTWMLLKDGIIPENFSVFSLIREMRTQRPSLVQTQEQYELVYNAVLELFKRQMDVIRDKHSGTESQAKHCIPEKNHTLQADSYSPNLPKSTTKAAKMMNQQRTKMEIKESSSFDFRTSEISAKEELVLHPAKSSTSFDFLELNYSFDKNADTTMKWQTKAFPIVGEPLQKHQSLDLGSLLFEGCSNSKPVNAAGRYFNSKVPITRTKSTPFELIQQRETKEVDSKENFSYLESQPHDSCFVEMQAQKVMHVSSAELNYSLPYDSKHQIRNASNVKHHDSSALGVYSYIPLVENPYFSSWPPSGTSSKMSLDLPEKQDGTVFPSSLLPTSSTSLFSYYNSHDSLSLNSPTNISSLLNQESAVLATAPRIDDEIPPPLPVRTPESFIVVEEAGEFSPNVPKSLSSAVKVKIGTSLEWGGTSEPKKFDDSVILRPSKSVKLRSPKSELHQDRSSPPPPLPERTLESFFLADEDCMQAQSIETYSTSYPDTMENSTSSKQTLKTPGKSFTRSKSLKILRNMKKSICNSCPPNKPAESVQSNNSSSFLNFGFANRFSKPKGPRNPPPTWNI
UniProt Q06124, 262-528 limits assumed: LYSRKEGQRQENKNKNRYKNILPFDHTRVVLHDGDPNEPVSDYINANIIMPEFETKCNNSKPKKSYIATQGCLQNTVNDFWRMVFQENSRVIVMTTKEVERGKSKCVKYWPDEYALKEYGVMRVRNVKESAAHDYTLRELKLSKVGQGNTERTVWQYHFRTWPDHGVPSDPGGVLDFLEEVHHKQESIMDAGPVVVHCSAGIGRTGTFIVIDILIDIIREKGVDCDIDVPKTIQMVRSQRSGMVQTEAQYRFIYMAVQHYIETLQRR
UniProt P51452, whole entry: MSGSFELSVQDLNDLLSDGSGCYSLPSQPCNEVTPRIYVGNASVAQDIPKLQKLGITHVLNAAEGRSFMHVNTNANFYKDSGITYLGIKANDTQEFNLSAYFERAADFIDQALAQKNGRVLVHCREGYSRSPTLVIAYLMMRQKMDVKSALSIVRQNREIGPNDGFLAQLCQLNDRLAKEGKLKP

Tests used:
[1] = target: Cdc14A (Homo sapiens, UniProt Q9UNH5); assay: PTP activity assay with pNPP as substrate: Cdc14A; type: biochemical; details: read-out: IC50 for Cdc14A; pNPP as substrate at Km, pH 7.0, 25° C., I = 0.15 M
[2] = system: TCR-mediated tyrosine phosphorylation in Jurkat T cells; assay: Anti-CD3 (TCR) induced tyrosine phosphorylation in Jurkat T cells, immunoblot; type: cell-based; details: 2-4 μM, 2 hours pretreatment, anti-CD3 stimulation
Protocol: (§1) Jurkat T cells were grown at 37° C. under an atmosphere of 5% CO2 in RPMI medium 1640 supplemented with 10% FBS. Cells were pretreated with different concentrations of TTN, TTN D-1, or TTM for 2 hours and stimulated with […] anti-CD3 antibody (OKT3; eBioscience) for 5 min and 30 min, respectively. Subsequently, cells were spinned down at 2000 rpm in 4° C., and cell pellets were lysed in 50 mM Tris-HCl (pH 7.5), 150 mM NaCl, 10% glycerol, 1% NP-40, 50 mM NaF, 10 mM pyrophosphate, 5 mM idoacetate, 1 mM sodium orthovanadate, and the protease inhibitor mixture. After 30 min lysing on ice, the cell lysates were centrifuged at 13,200 rpm for 15 min. Total cellular proteins were separated by SDS/PAGE and transferred electrophoretically to nitrocellulose membrane, which was immunoblotted by appropriate antibodies followed by incubation with HRP-conjugated secondary antibodies. Blots were developed using Pierce Pico ECL reagent (Thermo) according to the manufacturer's instructions.
(§2) TTN induces immunosuppression by suppression of TCR-mediated tyrosine phosphorylation and ERK1/2 activity in T cells (Shim et al., 2002). However, the mechanism of action for TTN's ability to block TCR signaling remains undefined. […]

[3] = system: TCR-mediated ERK1/2 activation in Jurkat T cells; assay: Anti-CD3 (TCR) induced ERK1/2 activation in Jurkat T cells, immunoblot; type: cell-based; details: 2 hours pretreatment, anti-CD3 stimulation
Protocol: as §1, §2

[4] = target: CD45 (Homo sapiens, UniProt P08575); assay: PTP activity assay with pNPP as substrate: CD45; type: biochemical; details: read-out: IC50 for CD45; pNPP as substrate at Km, pH 7.0, 25° C., I = 0.15 M
[5] = target: HePTP (Homo sapiens, UniProt P35236); assay: PTP activity assay with pNPP as substrate: HePTP; type: biochemical; details: read-out: IC50 for HePTP; pNPP as substrate at Km, pH 7.0, 25° C., I = 0.15 M
[6] = target: PTPα (Homo sapiens, UniProt P18433); assay: PTP activity assay with pNPP as substrate: PTPα; type: biochemical; details: read-out: IC50 for PTPα; pNPP as substrate at Km, pH 7.0, 25° C., I = 0.15 M
[7] = target: Lyp (Homo sapiens, UniProt Q9Y2R2); assay: PTP activity assay with pNPP as substrate: Lyp; type: biochemical; details: read-out: IC50 for Lyp; pNPP as substrate at Km, pH 7.0, 25° C., I = 0.15 M
[8] = target: SHP2 (Homo sapiens, UniProt Q06124); assay: Ki measurement, steady-state kinetic analysis of SHP2-catalyzed pNPP hydrolysis; type: biochemical; details: Lineweaver-Burk, FIG. 2
[9] = target: VHR (Homo sapiens, UniProt P51452); assay: PTP activity assay with pNPP as substrate: VHR; type: biochemical; details: read-out: IC50 for VHR; pNPP as substrate at Km, pH 7.0, 25° C., I = 0.15 M

Which IC50 [1] does the source give for CCC(/C=C/C(=O)O)=C\CC[C@H](C)C[C@@H](C)CC[C@H](O)[C@H](C)C(=O)C[C@@H](O)[C@H](C)[C@@H](C)OC(=O)C[C@@H](O)C1=C(C)C(=O)OC1=O here?
Its IC50 is greater than 50 µM.

And the “effect on TCR-mediated tyrosine phosphorylation” value [2]?
Its value is “blocked”.

What about the “effect on TCR-mediated ERK1/2 activation” value [3] of the same molecule?
The value was “strongly reduced”.

What about the IC50 [4] of the same molecule?
The IC50 was greater than 50 µM.

What about the IC50 [5] of the same molecule?
The IC50 was greater than 50 µM.

And the IC50 [6]?
The IC50 was greater than 50 µM.

And the IC50 [7]?
Its IC50 is greater than 50 µM.

And the “mode of inhibition of the SHP2-catalyzed reaction” value [8]?
The value was “competitive inhibitors”.

What about the IC50 [9] of the same molecule?
The IC50 was greater than 50 µM.
